Biological target: human LPAR1 (Homo sapiens, UniProt Q92633)
Assay: Arrestin assay (Arrestin Reporter EDG2-bla U2OS), inhibition of LPA-stimulated signal
Conditions: read-out: Arrestin Reporter EDG2-bla U2OS Human Merged IC50; TangoEDG2-bla U2OS cells expressing human LPAR1; 0.25 μM LPA
Protocol: The inhibitory activity of compounds 15, 62, 77, 84 and 169 against LPAR1 was measured using an Arrestin assay in U2OS cells expressing human LPAR1.
FreeStyle media was warmed in a 37° C. water bath. Cryo-preserved vial(s) of TangoEDG2-bla U2OS cells were rapidly thawed in a 37° C. water bath. The thawed cells were added to FreeStyle media and cells were pelleted at 300×g for 5 minutes. The supernatant was aspirated, and cells were resuspended in FreeStyle media. Cell density was adjusted to 0.25×10^6 cells/mL. Cells (1×10^4 in 40 μL) were added to each well of Greiner 384 well black cell plate(s). Cell plate(s) were placed in a humidified 37° C./5% CO2 incubator for 18-20 hours. Dilutions of test compound were prepared at 6× final concentration; 12-point, 3-fold dilutions using HH Buffer (1×HBSS plus 20 mM HEPES). The 6× test compound was then added to the cell plate(s) at 10 μL/well. […] Plate(s) were read on an Envision Plate Reader (Perkin Elmer) to read fluorescence; excitation at 409 nm with emission at 460 nm and 530 nm. […]
Additional compounds of the present disclosure were synthesized in a manner similar to the compounds described above and understood by a person of ordinary skill in the art. The inhibitory activity of the compounds of the present disclosure against LPAR1 was measured using the above-referenced Arrestin Assay protocol.

Protein sequences, listed by entry. Tags and fused reporters are not part of them.
UniProt Q92633, whole entry: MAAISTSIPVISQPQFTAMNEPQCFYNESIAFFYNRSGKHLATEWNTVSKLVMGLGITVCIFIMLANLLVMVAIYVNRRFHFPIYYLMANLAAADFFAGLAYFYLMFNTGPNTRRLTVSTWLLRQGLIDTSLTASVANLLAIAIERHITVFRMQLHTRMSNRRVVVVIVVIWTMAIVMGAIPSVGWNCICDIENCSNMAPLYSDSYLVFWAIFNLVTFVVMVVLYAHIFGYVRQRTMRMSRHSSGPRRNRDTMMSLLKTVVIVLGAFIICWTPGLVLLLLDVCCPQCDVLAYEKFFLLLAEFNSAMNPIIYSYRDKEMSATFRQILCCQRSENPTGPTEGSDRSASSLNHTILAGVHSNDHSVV

## CO[C@H]1CC[C@@H]([C@@H](CN2CCC(C(=O)Nc3ccc(Cl)cc3OC(F)F)(n3nccc3C(C)C)CC2)C(=O)O)CC1 (single isomer, unassigned)
  IC50: 55.1 nM

Reference: patent US20260102383A1, “LPAR1 Inhibitors” (AbbVie Inc., priority 2024, published 2026)
